What was measured:
Assay type in all cases: cell-based
[1] = tested on: SKBR3 cells (Her2+); test: Cell proliferation assay; settings: read-out: SKBR3 IC50, Table 5
[2] = tested on: NCI-H460 cells; test: Cytotoxicity assay to NCI-H460 human lung carcinoma cells; settings: NCI-H460, read-out: NCI-H460 IC50
[3] = tested on: MDA-MB-231 cells (Her2-); test: Cell proliferation assay; settings: read-out: MDA-MB-231 IC50, Table 5

“Trastuzumab-LCS7-MMAE [reference compound]” gave an IC50 [1] of 0.003 nM.

Work on “Trastuzumab-HCF404-MMAE [reference compound]” yielded an IC50 [1] of 0.046 nM.

CCCCCC(=O)N[C@H](C(=O)N[C@@H](CCS(=O)(=O)c1ccc(NC(=O)OC(C)(C)C)cc1)C(=O)N[C@@H](CC(C)C)C(=O)[C@@]1(C)CO1)C(C)C [Analogue 13-Boc, tert-Butyl (4-(((S)-3-((S)-2-hexanamido-3-methylbutanamido)-4-(((S)-4-methyl-1-((R)-2methyloxiran-2-yl)-1-oxopentan-2-yl)amino)-4-oxobutyl)sulfonyl)phenyl)carbamate] gave an IC50 [2] of 6.6 ± 0.3 nM.

For Trastuzumab-LCS7-22, the IC50 [1] was 0.21 nM.

Trastuzumab-LCS7-23 showed an IC50 [1] of 0.53 nM.

Work on Trastuzumab-HCF404-23 yielded an IC50 [3] of 10 nM.
